Measured values taken from ChEMBL document CHEMBL1130119, “2-Carbomethoxy-3-aryl-8-oxabicyclo[3.2.1]octanes: potent non-nitrogen inhibitors of monoamine transporters” (J Med Chem, 1997).

By UniProt entry, the sequences of proteins in these tests, tags left out.
UniProt P31645, whole entry: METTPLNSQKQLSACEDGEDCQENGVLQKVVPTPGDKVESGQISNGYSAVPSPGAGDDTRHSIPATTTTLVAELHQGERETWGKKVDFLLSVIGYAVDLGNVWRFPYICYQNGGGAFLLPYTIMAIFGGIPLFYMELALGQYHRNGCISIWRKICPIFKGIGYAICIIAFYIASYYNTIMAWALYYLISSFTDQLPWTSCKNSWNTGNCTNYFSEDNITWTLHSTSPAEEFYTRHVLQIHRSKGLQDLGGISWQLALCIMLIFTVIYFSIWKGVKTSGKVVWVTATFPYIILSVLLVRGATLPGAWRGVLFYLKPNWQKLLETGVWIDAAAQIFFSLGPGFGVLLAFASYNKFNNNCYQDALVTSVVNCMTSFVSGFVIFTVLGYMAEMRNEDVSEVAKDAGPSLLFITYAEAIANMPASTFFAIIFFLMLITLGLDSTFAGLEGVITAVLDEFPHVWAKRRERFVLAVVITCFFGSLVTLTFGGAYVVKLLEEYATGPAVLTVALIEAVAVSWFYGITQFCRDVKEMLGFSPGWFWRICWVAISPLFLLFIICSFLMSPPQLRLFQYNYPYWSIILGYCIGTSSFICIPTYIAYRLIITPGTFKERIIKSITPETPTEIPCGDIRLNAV

Target: Sodium-dependent serotonin transporter (Homo sapiens, UniProt P31645)
Assay: Inhibition of [3H]citalopram binding to the serotonin transporter (5-HT) in monkey caudate-putamen.
Assay type: tissue-based, Cercopithecidae
Settings: target entry is the homologue from another species

`COC(=O)[C@@H]1C2CC[C@H](C[C@@H]1c1ccccc1)N2C` (stereo in doubt; 19a) showed an IC50 of 21 nM.
